## AlphaSeq binding of Ab-14 light chain variants to a spike HR2 peptide

Data: MIT Lincoln Laboratory AlphaSeq set, Engelhart et al. 2022, doi:10.1038/s41597-022-01779-4, as distributed in FLAb.

Binding partner: SARS-CoV-2 spike HR2 peptide, sequence PDVDLGDISGINAS.

Parent scFv Ab-14: VH joined to VL by the linker GGGGSGGGGSGGGGS. Changes lie in the light chain CDRs alone.
VH: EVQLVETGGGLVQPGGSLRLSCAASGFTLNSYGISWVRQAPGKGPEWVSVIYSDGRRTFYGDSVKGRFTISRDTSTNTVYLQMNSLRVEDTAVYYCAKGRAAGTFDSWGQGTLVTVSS
VL: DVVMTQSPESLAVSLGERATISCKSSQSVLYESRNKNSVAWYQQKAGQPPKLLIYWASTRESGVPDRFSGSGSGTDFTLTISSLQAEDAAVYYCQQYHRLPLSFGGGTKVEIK

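Phage display of a naive human antibody library on the peptide gave the parent. AAYL50 was designed without a model: most single CDR substitutions and a random sample of double and triple ones. In AlphaSeq, yeast of one mating type display the scFv and yeast of the other type display the target. Mating (16 h, 30 °C) was followed by selection of diploids and sequencing of their barcodes. Each replicate has its own calibration line, from reference interactions of the BCL2 family. Mating was done three times.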

Variants are written as CDR1, CDR2 and CDR3 of the light chain (limits as in the source). Parent: KSSQSVLYESRNKNSVA, WASTRES, QQYHRLPLS. This list gathers variants with a substitution at Y97 (VL, numbered from residue 1). Affinities are written as log10 Kd with Kd in nM; a lower number is a better binder. The mean shown is taken over the replicates in which the pair was detected. "nd" means that the variant was in the library but no mating with the target was seen in any replicate; the authors take this as a sign of poor binding, and no number exists.

For KSSQSVLYESRNMNSVA / WASYRES / QQLHRLPLS, the assay gave nd (0 of 3 replicates; controls 0 of 9). The variant KSSQSPLYESRNKNSVA / WASTRES / QQCHRLPLS showed nd (0 of 3 replicates; controls 2 of 9). For KSSQSVLYEHRNKNSVA / WASNRES / QQQHRLPLS, the assay gave nd (0 of 3 replicates; controls 0 of 9). For KSSQSVLYESRNKNSFA / WASTRES / QQDHRLPSS, the assay gave 5.54 (3 of 3 replicates; controls 2 of 9). The variant KSSQSVLYEARCKNSVA / WASTRES / QQSHRLPLS showed 4.30 (2 of 3 replicates; controls 4 of 9). For KSSQSVLYSSRNKNSVA / WASTRES / QQKHRNPLS, the assay gave nd (0 of 3 replicates; controls 0 of 9). The variant KSSMSVLYESRNENSVA / WASTRES / QQKHRLPLS gave 1.30 (3 of 3 replicates; controls 0 of 9).

The variant NSSQSVLYESRNKNSVA / WASTRTS / QQNHRLPLS showed 4.42 (1 of 3 replicates; controls 2 of 9). With KSSQSVLHESRNKNSVA / WASTRES / QQVHRLPLS the result was 4.78 (1 of 3 replicates; controls 0 of 9). The variant KSSQSVLYPSRNKNSVA / WASTRES / KQMHRLPLS gave nd (0 of 3 replicates; controls 0 of 9). With KSSQSVLYESRNKNSVA / WMSTRES / QQWHRLPLA the result was 1.61 (3 of 3 replicates; controls 4 of 9). The variant KSSQSVLYESRNKNGVA / WASTIES / QQDHRLPLS gave nd (0 of 3 replicates; controls 0 of 9). For KSSQSVLYESRNKNSVA / WASTRNS / QQTHRLELS, the assay gave 5.11 (3 of 3 replicates; controls 7 of 9). The variant KSSQSVLYESRNKNSVA / WASTRHS / QQSHRLLLS gave 4.20 (3 of 3 replicates; controls 1 of 9).

The variant KSSQSLLYESRNKNSVA / WASTRES / QFPHRLPLS gave nd (0 of 3 replicates; controls 2 of 9). For KSSQSVLYESRNKNSVA / WAWTPES / QQHHRLPLS, the assay gave 4.64 (2 of 3 replicates; controls 3 of 9). For KSSQSVLYESRNKNSVA / WASTRES / QQTHRLKLS, the assay gave nd (0 of 3 replicates; controls 1 of 9). The variant KSSQSVLYESSNKNSVA / WASTRES / QQWHRLPLS gave 0.94 (3 of 3 replicates; controls 1 of 9). The variant KSSQKVLYESDNKNSVA / WASTRES / QQPHRLPLS gave nd (0 of 3 replicates; controls 0 of 9). With KSSQSVLYMSRNKNSVA / WASTREK / QQFHRLPLS the result was 2.32 (3 of 3 replicates; controls 6 of 9). For KSYQSVLYESRNKNSVY / WASTRES / QQWHRLPLS, the assay gave 5.22 (1 of 3 replicates; controls 1 of 9).

The variant KDSQSVLMESRNKNSVA / WASTRES / QQMHRLPLS showed nd (0 of 3 replicates; controls 1 of 9). With MSSQSVLYESRNKNSVA / WASTRES / QQRHRFPLS the result was 2.47 (3 of 3 replicates; controls 5 of 9). The variant KSSQSVLYESRNKNSVA / QASTRES / QQCWRLPLS gave 0.65 (3 of 3 replicates; controls 6 of 9). For KSSQDVLYESRNKNSVA / WASTRES / QQWHRLPLS, the assay gave 1.47 (3 of 3 replicates; controls 5 of 9). For KSSQRVLYRSRNKNSVA / WASTRES / QQQHRLPLS, the assay gave 5.83 (1 of 3 replicates; controls 2 of 9). With KSSQSVLYESRNKNSVA / WASTRES / QQPHRLPLS the result was 1.68 (3 of 3 replicates; controls 2 of 9). With KSSQSVLYESRNKLSVA / WASTRES / QQTLRLPLS the result was 3.40 (1 of 3 replicates; controls 0 of 9).

The variant KSSQFVLYESRNKNSVA / WASTRNS / QQWHRLPLS showed 2.04 (3 of 3 replicates; controls 3 of 9). The variant KSSQSVLYENRNKNSVA / WASTRES / QQCPRLPLS gave 3.72 (1 of 3 replicates; controls 0 of 9). With KSSQSVLYESRNKNSVA / WASTRES / SQHTRLPLS the result was nd (0 of 3 replicates; controls 0 of 9). The variant KSSQSCLYESRNKNSVA / WASTRES / HQSHRLPLS showed 1.24 (3 of 3 replicates; controls 1 of 9). With KSSQSVLYESRNKNSVA / WASGFES / QQWHRLPLS the result was nd (0 of 3 replicates; controls 0 of 9). The variant KSSQSVLVDSRNKNSVA / WASTRES / QQQHRLPLS gave 1.00 (3 of 3 replicates; controls 3 of 9). The variant KSSQSVTYESRNKNSVA / WASTRES / QQQQRLPLS showed nd (0 of 3 replicates; controls 0 of 9).

The variant KSSQSVLYESRNKNSVA / WASTRES / QQTHRLPLS gave nd (0 of 3 replicates; controls 0 of 9). For KSSQSVLYESRNKNSVA / WASMRES / QQGHRLPLS, the assay gave 1.83 (3 of 3 replicates; controls 6 of 9). The variant KSSQSVLAESRNKNSVA / WASTRES / QQDARLPLS gave nd (0 of 3 replicates; controls 4 of 9).

Repeated from above, the 6 best binders with a signal in all replicates:

{"CDR-L1": "KSSQSVLYESRNKNSVA", "CDR-L2": "QASTRES", "CDR-L3": "QQCWRLPLS", "mean, log10 nM": "0.65", "detected": "3 of 3", "empty controls": "6 of 9"}
{"CDR-L1": "KSSQSVLYESSNKNSVA", "CDR-L2": "WASTRES", "CDR-L3": "QQWHRLPLS", "mean, log10 nM": "0.94", "detected": "3 of 3", "empty controls": "1 of 9"}
{"CDR-L1": "KSSQSVLVDSRNKNSVA", "CDR-L2": "WASTRES", "CDR-L3": "QQQHRLPLS", "mean, log10 nM": "1.00", "detected": "3 of 3", "empty controls": "3 of 9"}
{"CDR-L1": "KSSQSCLYESRNKNSVA", "CDR-L2": "WASTRES", "CDR-L3": "HQSHRLPLS", "mean, log10 nM": "1.24", "detected": "3 of 3", "empty controls": "1 of 9"}
{"CDR-L1": "KSSMSVLYESRNENSVA", "CDR-L2": "WASTRES", "CDR-L3": "QQKHRLPLS", "mean, log10 nM": "1.30", "detected": "3 of 3", "empty controls": "0 of 9"}
{"CDR-L1": "KSSQDVLYESRNKNSVA", "CDR-L2": "WASTRES", "CDR-L3": "QQWHRLPLS", "mean, log10 nM": "1.47", "detected": "3 of 3", "empty controls": "5 of 9"}

Nonspecific signal, from three strains lacking the peptide, appeared in 18% of pairings of library AAYL50, centred on 4.19 (5% of these signals below 2.99); values are not corrected for it. Also given: how often the same scFv was detected with the empty control strains. In this assay the parent's reference entry averaged 0.65; its copy inside this library read 1.68.